# Measured affinities in a library of Ab-95 light chain variants

Target peptide (SARS-CoV-2 spike, HR2 region): PDVDLGDISGINAS

Each scFv is VH, the linker GGGGSGGGGSGGGGS, VL, as in the parent Ab-95, and differs from it in the CDRs of the light chain only.
VH: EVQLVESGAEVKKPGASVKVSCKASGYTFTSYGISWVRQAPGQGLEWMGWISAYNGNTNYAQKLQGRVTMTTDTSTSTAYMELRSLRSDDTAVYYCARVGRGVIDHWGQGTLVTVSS
VL: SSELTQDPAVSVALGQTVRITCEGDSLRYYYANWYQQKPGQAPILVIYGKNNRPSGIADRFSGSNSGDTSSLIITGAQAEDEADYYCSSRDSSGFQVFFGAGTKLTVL

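Library AAYL52 holds single substitutions and randomly drawn double and triple substitutions in the CDRs. Affinity was read by AlphaSeq, a pooled yeast mating assay with surface-displayed partners. Pairs that bind mate more often; barcode pairs of the diploids are counted by sequencing. Each replicate has its own calibration line, from reference interactions of the BCL2 family. Mating was done three times.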

The parent's light chain CDRs are EGDSLRYYYAN, GKNNRPS, SSRDSSGFQVF; each variant's own CDRs replace them letter for letter.
All variants listed here change R28 of the VL, counted from its first residue.
The Kd shown is the geometric mean over detected replicates; a lower Kd is a better binder.
A pair that was not seen in any replicate is written "not detected"; this usually means weak binding, but a binder can also be missed.
Background: pairings of library AAYL52 with three empty control strains gave a value in 28% of cases (median 8.2 µM, 5th percentile 800 nM). Values in that range, when seen in few replicates, are hard to tell from nonspecific mating.

CDR-L1	CDR-L2	CDR-L3	Kd (apparent)	replicates with signal
EGDSLWYLYAK	GKNNRPS	SSRDSSGFQVF	18 µM	1 of 3
EGDSLAYYYAN	GKNTRPS	SSRPSSGFQVF	not detected	0 of 3
EGDSLTYYYAN	GKNNRRS	VSRDSSGFQVF	6.2 µM	3 of 3
EGDSLCYYYAD	GKNNRPS	SSRDSSGFQWF	330 µM	1 of 3
EGDSLDYYYAN	GKNNRPW	SSRDSSGFQVF	2.7 µM	3 of 3
EGDSLDYDYAN	GNNNRPS	SSRDSSGFQVF	440 nM	3 of 3
EGDSLVYYYAN	GNNARPS	SSRDSSGFQVF	340 nM	3 of 3
EGDSLHYYYAN	GKNNRPS	SSRDNSYFQVF	28 µM	1 of 3
EGDSLFYYYAN	GKNNRPA	SSRDPSGFQVF	1.5 µM	3 of 3
EMDSLSYYYAN	GKNNRPS	SSRDSSGFQVF	4.6 µM	3 of 3
EGDSLVYYYAN	GKPNRPS	SSRDSSGFQVF	not detected	0 of 3
EGDSLIYYYAN	GKNWRPS	SSRDSSGFQVF	6.6 µM	3 of 3
EGDSLWYTYAN	GKNNRPS	SSRDSSGFQVG	65 nM	3 of 3
EGDKLCYYYAN	GKNNRPS	SSRDSSEFQVF	7.0 µM	3 of 3
EGPSLYYYYAN	GKNNRPS	SSRDSSGFQDF	not detected	0 of 3
EGDSLVYYYAN	GKNNRPS	CSRDSSGFQVF	910 nM	3 of 3
EGDSLPYYYAN	GKYNRPS	SSRDSSGFYVF	480 µM	1 of 3
EYDSLCYYYAN	GKNNRPS	TSRDSSGFQVF	not detected	0 of 3
EGDSLGYYYAN	FKNPRPS	SSRDSSGFQVF	14 µM	2 of 3
EGNSLEYYYAN	GKNNRPS	SSRDSSLFQVF	590 nM	3 of 3
EGDSLLYYDAN	GKNNRPS	SSRDSSGFQVT	not detected	0 of 3
EGQSCLYYYAN	GKNNRPS	SSRDSSGFQVF	28 µM	2 of 3
EGDSLAYYYAN	QKNQRPS	SSRDSSGFQVF	1.7 µM	3 of 3
EGDSLMYYYAN	GKTNRPS	SSRDSSFFQVF	3.9 µM	2 of 3
EGDSLWYYYAE	GKNNRPS	SSRDSSGFQVS	72 µM	3 of 3
EGDSYPYYYAN	GKNNRAS	SSRDSSGFQVF	480 nM	3 of 3
EGDSLKYYYAN	GKNNRPS	SSADSSGLQVF	220 nM	3 of 3
EGDSLQYRYAN	GKNNRPS	SSRDSSGFQVK	100 nM	3 of 3
EGDSLNYYYAN	GKNNRPS	SWRDSSGFRVF	1.3 µM	3 of 3
GGDSLWYYYAW	GKNNRPS	SSRDSSGFQVF	96 µM	1 of 3
EGDSLHYYYAN	GKNNRPS	SSRVSSTFQVF	490 nM	3 of 3
EGDSLWYYYAN	GKNNRPS	ISRDSSGFQFF	not detected	0 of 3
EGDSLSYYYAN	GKNNRPS	SSLDSSGFQVF	130 nM	3 of 3
EGDSLFYYYMN	GKNNVPS	SSRDSSGFQVF	34 µM	2 of 3
EGDSLEYYVAN	GKNNRSS	SSRDSSGFQVF	460 nM	3 of 3
EGDSLCYYYAN	GKNNRPH	SSRDSSGFQVH	1.9 µM	3 of 3
EGDSLVMYYAN	GKNNRPS	SSRDSSGFQVI	1.1 µM	2 of 3
EFDSLMYYYAN	GKNNRPS	SLRDSSGFQVF	270 nM	3 of 3
EGDSLNFYYAN	GKNNRPS	SSRDSSGFQVF	330 nM	3 of 3
EGDSLAYYYAN	GKNNRDS	SSRDSSGFQVR	390 nM	3 of 3
EGESESYYYAN	GKNNRPS	SSRDSSGFQVF	250 nM	1 of 3
EGDSLDYYYAN	IKNNRCS	SSRDSSGFQVF	13 µM	1 of 3
EGDSLTPYYAN	GKNNRPS	SSRDSSGFQVF	440 nM	3 of 3
ENDSLKYYYAN	GKNNRPW	SSRDSSGFQVF	not detected	0 of 3
EGDSLGIYYAN	GKNNRPY	SSRDSSGFQVF	1.2 µM	3 of 3
EGNSLVYYYIN	GKNNRPS	SSRDSSGFQVF	21 µM	2 of 3
EGDSQVYYYAN	GKNMRPS	SSRDSSGFQVF	1.5 µM	1 of 3
EGDSLNYEYAN	CKNNRPS	SSRDSSGFQVF	9.7 µM	2 of 3
EGDSLIYYYAN	GKNNRFT	SSRDSSGFQVF	9.8 µM	3 of 3
EGDSLYYYYAN	GKNNRPS	SRRDSSGFQVF	1.7 µM	3 of 3
EGDFLPYYYAN	GKNNRPS	SSRASSGFQVF	60 µM	2 of 3
EGDSLKYYYAN	GKGNRDS	SSRDSSGFQVF	7.2 µM	3 of 3
EGLSLYYYYAN	GKNNRPR	SSRDSSGFQVF	6.5 µM	2 of 3
EGDVLVYYYAN	GKNNRPS	SVRDSSGFQVF	not detected	0 of 3
EGDSLAYYYAN	GKNNRPS	SSRDDSGFQVF	710 nM	3 of 3
EGCSLEYYYAN	GKNNRPS	SSRDSSGFQVF	56 nM	3 of 3
EGWSLHYYYAN	GKNNGPS	SSRDSSGFQVF	28 µM	1 of 3
ERDSLEWYYAN	GKNNRPS	SSRDSSGFQVF	2.2 µM	1 of 3
EGDSLNVYYAN	GKNNRPS	SSRDSSGFQVF	5.1 µM	3 of 3
EGDSLNYYYAN	GKNNRPS	SSRDMSGFQVP	1.2 µM	3 of 3
NGDSLEYDYAN	GKNNRPS	SSRDSSGFQVF	130 nM	3 of 3
EGDSLNYYMAN	GKNNRPS	SSRDSSGFHVF	71 nM	3 of 3
EGDNLSYYYAN	GKNNRPS	SSRDSSGFQVF	4.6 µM	2 of 3
EGMFLTYYYAN	GKNNRPS	SSRDSSGFQVF	28 µM	3 of 3
EGDSLCYYYAN	IKNNRPS	SSRDSSGFDVF	27 µM	2 of 3
EADSLYYYYAN	GKNNRPS	SSRDSLGFQVF	25 µM	2 of 3
EGDSLIYYYAY	CKNNRPS	SSRDSSGFQVF	17 µM	3 of 3

Excerpt, the first 8 entries:

{"CDR-L1": "EGDSLWYLYAK", "CDR-L2": "GKNNRPS", "CDR-L3": "SSRDSSGFQVF", "Kd (apparent)": "18 µM", "replicates with signal": "1 of 3"}
{"CDR-L1": "EGDSLAYYYAN", "CDR-L2": "GKNTRPS", "CDR-L3": "SSRPSSGFQVF", "Kd (apparent)": "not detected", "replicates with signal": "0 of 3"}
{"CDR-L1": "EGDSLTYYYAN", "CDR-L2": "GKNNRRS", "CDR-L3": "VSRDSSGFQVF", "Kd (apparent)": "6.2 µM", "replicates with signal": "3 of 3"}
{"CDR-L1": "EGDSLCYYYAD", "CDR-L2": "GKNNRPS", "CDR-L3": "SSRDSSGFQWF", "Kd (apparent)": "330 µM", "replicates with signal": "1 of 3"}
{"CDR-L1": "EGDSLDYYYAN", "CDR-L2": "GKNNRPW", "CDR-L3": "SSRDSSGFQVF", "Kd (apparent)": "2.7 µM", "replicates with signal": "3 of 3"}
{"CDR-L1": "EGDSLDYDYAN", "CDR-L2": "GNNNRPS", "CDR-L3": "SSRDSSGFQVF", "Kd (apparent)": "440 nM", "replicates with signal": "3 of 3"}
{"CDR-L1": "EGDSLVYYYAN", "CDR-L2": "GNNARPS", "CDR-L3": "SSRDSSGFQVF", "Kd (apparent)": "340 nM", "replicates with signal": "3 of 3"}
{"CDR-L1": "EGDSLHYYYAN", "CDR-L2": "GKNNRPS", "CDR-L3": "SSRDNSYFQVF", "Kd (apparent)": "28 µM", "replicates with signal": "1 of 3"}

The measurements come from Engelhart et al. 2022 (doi:10.1038/s41597-022-01779-4) through the FLAb antibody collection.